Data: US8945629B2, “Nanoparticles for cytoplasmic drug delivery to cancer cells” (University of Wyoming, priority 2004, dated 2015)

Assay: Transition pH (pHc) / pH-dependent solubility of polymers

Poly[2-(N,N-dimethylamino)ethyl methacrylate] [PDMA]
solubility as a function of pH: soluble at all pH ranges
